Test results: patent US8263636B2, “Dual alanyl aminopeptidase and dipeptidyl peptidase iv inhibitors for functionally influencing different cells and for treating immunological inflammatory, neuronal and other diseases” (IMTM GmbH, priority 2003, dated 2012)
pIC50: −log10 of the molar value. Like-named read-outs stand apart in the source and are kept apart here.

Amino acid sequences for entries named in this document (tags omitted). A change or cut given only in a name is not applied to a line headed by its entry.
UniProt P15144: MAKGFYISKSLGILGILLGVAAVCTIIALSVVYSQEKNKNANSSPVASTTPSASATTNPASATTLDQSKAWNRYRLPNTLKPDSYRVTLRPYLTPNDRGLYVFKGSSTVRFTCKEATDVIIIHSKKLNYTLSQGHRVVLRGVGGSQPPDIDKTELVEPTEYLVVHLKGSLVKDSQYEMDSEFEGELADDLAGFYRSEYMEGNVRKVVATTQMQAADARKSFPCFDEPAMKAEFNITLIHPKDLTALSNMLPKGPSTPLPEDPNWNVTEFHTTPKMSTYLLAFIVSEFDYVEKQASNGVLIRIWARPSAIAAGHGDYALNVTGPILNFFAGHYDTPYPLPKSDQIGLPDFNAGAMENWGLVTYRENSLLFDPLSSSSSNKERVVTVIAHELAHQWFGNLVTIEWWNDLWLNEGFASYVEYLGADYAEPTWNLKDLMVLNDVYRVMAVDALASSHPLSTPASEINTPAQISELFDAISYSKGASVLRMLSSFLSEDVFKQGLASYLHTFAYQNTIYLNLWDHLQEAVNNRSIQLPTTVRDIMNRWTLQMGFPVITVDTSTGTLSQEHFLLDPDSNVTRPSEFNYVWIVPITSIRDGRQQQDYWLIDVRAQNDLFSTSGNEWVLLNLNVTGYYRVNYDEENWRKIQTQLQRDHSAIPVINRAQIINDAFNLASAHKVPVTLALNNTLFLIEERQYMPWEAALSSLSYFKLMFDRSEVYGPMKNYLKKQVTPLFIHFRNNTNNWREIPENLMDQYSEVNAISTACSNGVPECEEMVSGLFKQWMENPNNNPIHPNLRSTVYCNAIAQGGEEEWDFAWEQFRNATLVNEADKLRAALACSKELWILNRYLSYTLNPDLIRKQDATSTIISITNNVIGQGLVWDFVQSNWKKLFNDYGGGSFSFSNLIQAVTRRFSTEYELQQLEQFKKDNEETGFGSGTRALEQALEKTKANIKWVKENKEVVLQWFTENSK

Target: alanyl aminopeptidase (APN) (Homo sapiens, UniProt P15144)
Experiment: Inhibition of alanyl aminopeptidase enzymatic activity, fluorogenic substrate (Ala)2-rhodamine
Format: biochemical
Settings: read-out: IC50 APN, unmarked = IC-50

Compound `Cc1cc(N(C)C)cc[n+]1C(=O)N(C)C` has a pIC50 (Table 8, second value of cell) of 4.56 and a pIC50 (second value of cell DPIV/APN) of 4.56.
